The target in this experiment is Carbonic anhydrase 13 (Mus musculus, UniProt Q9D6N1).

Chains of the proteins cited; added tags and fusions are not shown. Lines headed by an entry give the natural chain unless they say otherwise; changes in a name come on top.
UniProt Q9D6N1: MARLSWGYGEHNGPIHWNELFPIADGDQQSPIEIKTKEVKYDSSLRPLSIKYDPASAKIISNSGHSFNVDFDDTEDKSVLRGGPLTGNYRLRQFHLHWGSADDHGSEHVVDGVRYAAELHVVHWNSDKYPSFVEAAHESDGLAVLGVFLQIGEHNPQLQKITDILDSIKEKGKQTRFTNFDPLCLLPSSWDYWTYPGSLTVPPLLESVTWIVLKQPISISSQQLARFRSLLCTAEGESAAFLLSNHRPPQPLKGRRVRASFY

With `CC(=O)/N=c1/sc(S(N)(=O)=O)nn1C` [METHAZOLAMIDE], the inhibitory constant (Ki) (usually the dissociation constant of the complex between target and ligand, obtained from inhibition or displacement) worked out at 19 nM.

(Values after ChEMBL document CHEMBL1146805, “Carbonic anhydrase inhibitors. Inhibition of cytosolic isozyme XIII with aromatic and heterocyclic sulfonamides: a novel target for the drug design” (Bioorg Med Chem Lett, 2004).)
